Laboratory results: ChEMBL document CHEMBL2146398, “Novel interleukin-5 inhibitors based on hydroxyethylaminomethyl-4H-chromen-4-one scaffold” (Bioorg Med Chem, 2012)

Target: T1, Interleukin-5 (Mus musculus) (UniProt P04401)
T1 sequence (whole entry): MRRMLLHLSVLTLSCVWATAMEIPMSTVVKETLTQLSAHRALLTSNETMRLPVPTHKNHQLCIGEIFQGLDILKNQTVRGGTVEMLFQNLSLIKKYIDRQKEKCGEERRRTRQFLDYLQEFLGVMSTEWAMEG
Assay: Inhibition of IL-5 in mouse Y16 cells at 30 uM after 48 hrs by WST1 assay
Format: cell-based
In short: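 IL-5-dependent pro-B Y16 cells cultured 48 h with 3 units/mL mIL-5, with or without test sample. Proliferation read as cell metabolism by WST-1 reduction. […] Values are means of three independent experiments.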

inhibition: 55.3%
Compound: CCCC1O[C@@H]2C[C@H]3[C@@H]4CCC5=CC(=O)C=C[C@]5(C)[C@H]4[C@@H](O)C[C@]3(C)[C@]2(C(=O)CO)O1 (stereo partly specified)
